Results reported in paper PMC8569887 (Journal of medicinal chemistry, 2021).

What was measured:
[1] = system: acetylated α-tubulin (AcTub) levels in QBI293 cells; details: for Class (Table 1): from AcTub and α-Tub at 1 and 10 μM; for Class (Table 2): from AcTub and α-Tub at 1 and 10 μM (61: 10 and 30 μM)
[2] = system: total α-tubulin (α-Tub) levels in QBI293 cells; details: 10 μM
[3] = system: acetylated α-tubulin (AcTub) levels in QBI293 cells; assay: cells; details: QBI293, 4 h, read-out: AcTub 10 μM, fold-change over control (DMSO)-treated cells, QBI293 cells, 4 h incubation, 10 μM compound

Row | Compound | Class (Table 1) [1] | Class (Table 2) [1] | further results
1 | C[C@H](Nc1c(-c2c(F)cc(Cl)cc2F)c(Cl)nc2ncnn12)C(F)(F)F [Compound 21, (S)-5-Chloro-6-(4-chloro-2,6-difluorophenyl)-N-(1,1,1-trifluoropropan-2-yl)-[1,2,4]triazolo[1,5-a]pyrimidin-7-amine] | II (Class II compounds are those that cause >15% decrease in α-tubulin at either 1 or 10 μM compound concentration) | – | reduction (loss) of α-tubulin [2]: 19%
2 | C[C@H](Nc1c(-c2c(F)cc(OCCCO)cc2F)c(Cl)nc2ncnn12)C(F)(F)F [Compound 31] | II (Class II compounds are those that cause >15% decrease in α-tubulin at either 1 or 10 μM compound concentration) | – | fold induction at 10 µM [3]: 1.33 ± 0.15
3 | CC(Cc1c(-c2c(F)cc(F)cc2F)c(Cl)nc2ncnn12)C(F)(F)F (centres unmarked) [Compound 62, 5-Chloro-7-(3,3,3-trifluoro-2-methylpropyl)-6-(2,4,6-trifluorophenyl)-[1,2,4]triazolo[1,5-a]pyrimidine] | – | II (Class II compounds are those that cause >15% decrease in α-tubulin at either 1 or 10 μM compound concentration) | –
4 | C[C@H](Nc1c(-c2ccc(F)cc2)c(Cl)nc2ncnn12)C(F)(F)F [Compound 9, (S)-5-Chloro-6-(4-fluorophenyl)-N-(1,1,1-trifluoropropan-2-yl)-[1,2,4]triazolo[1,5-a]pyrimidin-7-amine] | I (Class I compounds are those producing a concentration-dependent increase in AcTub levels and that do not cause >15% reduction in α-tubulin at either concentration) | – | –
5 | CSc1cc(F)c(-c2c(Cl)nc3ncnn3c2N[C@@H](C)C(F)(F)F)c(F)c1 [Compound 28, (S)-5-Chloro-6-(2,6-difluoro-4-(methylthio)phenyl)-N-(1,1,1-trifluoropropan-2-yl)-[1,2,4]triazolo[1,5-a]pyrimidin-7-amine] | II (Class II compounds are those that cause >15% decrease in α-tubulin at either 1 or 10 μM compound concentration) | – | –
6 | CC(CF)Nc1c(-c2c(F)cc(F)cc2F)c(Cl)nc2ncnn12 (centres unmarked) [Compound 44, 5-Chloro-N-(1-fluoropropan-2-yl)-6-(2,4,6-trifluorophenyl)-[1,2,4]triazolo[1,5-a]pyrimidin-7-amine] | – | I (Class I compounds are those producing a concentration-dependent increase in AcTub levels and that do not cause >15% reduction in α-tubulin at either concentration) | –
7 | Fc1cc(F)c(-c2c(Cl)nc3ncnn3c2N2CCCCCCC2)c(F)c1 [Compound 53, 7-(Azocan-1-yl)-5-chloro-6-(2,4,6-trifluorophenyl)-[1,2,4]triazolo[1,5-a]pyrimidine] | – | I (Class I compounds are those producing a concentration-dependent increase in AcTub levels and that do not cause >15% reduction in α-tubulin at either concentration) | –
8 | CC(C)[C@@H](Nc1c(-c2c(F)cc(F)cc2F)c(Cl)nc2ncnn12)C(F)(F)F [Compound 46, (R)-5-Chloro-N-(1,1,1-trifluoro-3-methylbutan-2-yl)-6-(2,4,6-trifluorophenyl)-[1,2,4]triazolo[1,5-a]pyrimidin-7-amine] | – | I (Class I compounds are those producing a concentration-dependent increase in AcTub levels and that do not cause >15% reduction in α-tubulin at either concentration) | –
9 | C[C@H](Nc1c(-c2ccc(F)c(F)c2)c(Cl)nc2ncnn12)C(F)(F)F [Compound 15, (S)-5-Chloro-6-(3,4-difluorophenyl)-N-(1,1,1-trifluoropropan-2-yl)-[1,2,4]triazolo[1,5-a]pyrimidin-7-amine] | I (Class I compounds are those producing a concentration-dependent increase in AcTub levels and that do not cause >15% reduction in α-tubulin at either concentration) | – | –
10 | Fc1cc(F)c(-c2c(Cl)nc3ncnn3c2NC2CCCC2)c(F)c1 [Compound 57, 5-Chloro-N-cyclopentyl-6-(2,4,6-trifluorophenyl)-[1,2,4]triazolo[1,5-a]pyrimidin-7-amine] | – | I (Class I compounds are those producing a concentration-dependent increase in AcTub levels and that do not cause >15% reduction in α-tubulin at either concentration) | –
11 | CC(C)[C@H](Nc1c(-c2c(F)cc(F)cc2F)c(Cl)nc2ncnn12)C(F)(F)F [Compound 47, (S)-5-Chloro-N-(1,1,1-trifluoro-3-methylbutan-2-yl)-6-(2,4,6-trifluorophenyl)-[1,2,4]triazolo[1,5-a]pyrimidin-7-amine] | – | II (Class II compounds are those that cause >15% decrease in α-tubulin at either 1 or 10 μM compound concentration) | reduction (loss) of α-tubulin [2]: ~ 40%
